For this series, the system named is 5,6,7,8-tetrahydrofolate. Kind of series: purified protein, by the assay type. The note with it: other: Michaelis–Menten fit; 37.0 °C.

Among the data in publication PMC2877875, “Characterisation of the bifunctional dihydrofolate synthase–folylpolyglutamate synthase from Plasmodium falciparum; a potential novel target for antimalarial antifolate inhibition” (Molecular and Biochemical Parasitology, 2010) are Km values, retold here.

What is called Km is the substrate concentration at which the rate is half of its maximum.

“PfDHFS–FPGS (FPGS activity) (Plasmodium falciparum 3D7)”: the Michaelis-Menten constant (Km) worked out at 0.96 µM.
